## Measured affinities in a library of Ab-14 heavy chain variants

Target: peptide PDVDLGDISGINAS, taken from heptad repeat 2 (HR2) of SARS-CoV-2 spike.

The variants keep the light chain, the linker and the frameworks of Ab-14 (scFv order VH, the linker GGGGSGGGGSGGGGS, VL).
VH: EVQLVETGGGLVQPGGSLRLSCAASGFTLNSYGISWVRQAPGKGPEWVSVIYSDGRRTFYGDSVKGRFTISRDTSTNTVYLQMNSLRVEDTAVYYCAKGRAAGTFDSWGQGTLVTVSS
VL: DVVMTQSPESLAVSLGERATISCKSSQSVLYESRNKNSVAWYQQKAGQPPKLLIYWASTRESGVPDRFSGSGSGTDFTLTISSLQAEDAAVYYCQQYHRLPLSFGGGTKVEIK

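The parent was found by panning a naive human phage display library on the peptide. This is the validation round: designs drawn from the data on random variants, tested in the same kind of assay. Their group label is 14H_En_Gibbs (En: ensemble of fine-tuned language models; Gibbs: Gibbs sampling). The assay is AlphaSeq: two haploid yeast populations carry antibody and antigen on their surface. Mating (16 h, 30 °C) was followed by selection of diploids and sequencing of their barcodes. A regression on co-assayed BCL2-family reference pairs converts the normalised counts of each replicate to an apparent Kd. The assay was run in six technical replicates.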

Variants are written as CDR1, CDR2 and CDR3 of the heavy chain (limits as in the source). Parent: GFTLNSYGIS, VIYSDGRRTFYGDSVK, GRAAGTFDS. Values are log10 of the apparent Kd in nM; lower means stronger binding. "nd" marks a missing value. The strain was present, yet no cells mated with the target were sequenced in that replicate, which points to weak or no binding. Nonspecific signal, from three strains lacking the peptide, appeared in 1% of pairings of all heavy chain designs, centred on 2.08 (5% of these signals below 0.84); values are not corrected for it. The control count says in how many pairings with the empty strains this scFv gave a signal, with their mean in brackets.

CDR-H1	CDR-H2	CDR-H3	replicates, log10 nM	signal with controls
GFDLNEQGIS	VIYADGRRAATINQVK	GSNSFTFDL	nd nd nd nd nd nd	0/18
GKSLEEYGIS	VIYADGQRSAYAETVK	GNNGGVFIY	nd nd nd nd nd nd	0/18
GFQLDEYGIS	VIYADGERTMYSNRVK	GTEGGTFDM	0.87 0.67 -0.29 1.17 -0.19 0.31	0/18
EFDLNEYGVS	VIYADGHRTFYADHVK	GTEAGVFTI	nd 1.40 nd nd nd nd	0/18
GFDVNEYGIS	VIYADGRRTQYTDAVK	GKNNMVLFV	nd nd nd nd nd nd	0/18
GDDLNEYGIS	VIYADGRRSAYTDNVK	GHAGNIFMS	nd nd nd nd nd nd	1/18 (2.07)
GFDINEYGVS	VIYADGMRSYYDDKVK	GSNGDLLEV	1.50 1.02 1.42 1.53 1.37 1.63	0/18
GMDLSEYGIS	VIYADGMRTYASDSVK	GEHGGMLLY	nd nd nd nd nd nd	0/18
GFEIQDYGIS	VIYADGFRTAYAESVK	GNMGGTFST	0.45 0.11 0.52 0.21 0.61 0.52	1/18 (1.68)
GFTLDEYGIS	VIYADGMRTQYIDQVK	GLLVNTNMT	0.35 0.36 0.07 0.18 0.41 0.11	0/18
GDGLEDYGIS	VIYADGRRRAYVENVK	GVYAGYFDV	nd nd nd nd nd nd	0/18
GFDLDEYGVS	VIYADGERTFYQDKVK	GTHGNTRVL	nd nd nd nd nd nd	0/18
GFDLGEYGIS	VIYADGVRRSYADKVK	GKNGAISSV	nd nd nd nd nd nd	0/18
GFHLDEYGIS	VIYADGLRYHYANSVK	GEMAGTFTT	nd nd nd nd nd nd	0/18
GFSLNEYGIS	VIYADGFRAVYTDKVK	GVTGGNFSS	-0.23 -0.34 0.44 0.09 -0.38 -0.40	0/18
GFQLDEYGIS	VIYADGERTHYSNDVK	GTIGGTFFQ	2.35 1.42 0.92 0.67 1.13 1.34	0/18
GFSIDEYGIS	VIYADGTRTAYHDDVK	GAYDIVAVL	nd nd nd nd nd nd	0/18
GPNLEEYGIS	VIYADGMRTAYKDSVK	GQVAGIGKF	nd nd nd nd nd nd	0/18
GFALDEYGIS	VIYADGMRTFYSNTVK	GEDGVFYDQ	nd nd nd nd 3.18 nd	1/18 (2.48)
EFDIQEYGIS	VIYADGKREAYKDNFK	GNVAGTFDA	0.26 0.26 0.30 0.80 0.30 0.68	0/18
GFDLDEQGIS	VIYADGVRCSYADKVK	GANSGVIDV	nd nd nd nd nd nd	0/18
GFDIQDYGIS	VIYADGSRTAYTNSVK	GVTGAFAGL	nd nd nd nd nd nd	0/18
GFDLDEYGIS	VIYADGMRTAYTDKVK	GRETDTNVV	nd nd nd nd nd nd	0/18
GFDIDEYGIS	VIYADGMRQALIDAVK	GTLSGTFDA	-0.23 -0.21 -0.61 -1.03 -0.63 0.00	0/18
GFELDEYGIS	VIYADGKRKAYDDAVK	GFRLGVKLI	nd nd nd nd nd nd	0/18
GFDLDEYGVS	VIYADGIRSTYADAVK	GKHGGAFFV	nd nd nd nd nd nd	0/18
GFGLEEFGIS	VIYADGSRRAYAQDVK	GGTAGHFVV	nd nd nd nd nd nd	0/18
EFDLNEYGIS	VIYADGKRTFYADHVK	GVNAGVFDT	0.49 0.80 0.41 0.39 0.59 0.65	0/18
GFDVDEQGIS	VIYADGLRSQYANSVK	GANGGMFFQ	nd nd nd nd nd nd	1/18 (0.95)
GFDLESYGIS	VIYADGMRVSYTNNVK	GQNVMISTG	nd nd nd nd nd 2.46	0/18
GKSLDEYGIS	VIYADGLRSVYANNVK	GQFDDAMDL	1.41 nd nd nd nd nd	0/18
GQDINEYGIS	VIYADGIRSAYAQSVK	GYHGSQFDI	nd nd nd nd nd nd	0/18
GFALDEYGIS	VIYADGKRTAYHNKVK	GGYSFLKGI	nd nd nd nd nd nd	0/18
KENIDEYGIS	VIYADGRRTAYTQDVK	GQAGGIIDV	nd nd nd nd nd nd	0/18
GFDLDEYGIS	VIYADGSRTAYSKNVK	GGFDIKVIV	nd nd nd nd nd nd	0/18
GQSLSEYGIS	VIYADGVRRSYAESVK	GNTSGNFSS	nd nd nd nd nd nd	0/18
GFQINEYGIS	VIYADGLRAAYSQDVK	GMDTGNFVD	nd nd nd nd nd nd	0/18
GFDVNEYGIS	VIYADGVRRTYQDAVK	GNLSGVVDV	nd nd nd nd nd nd	1/18 (1.72)
GFSLDEYGIS	VIYADGQRKSYSDNVK	GYQGSRVSL	nd nd nd nd 2.08 nd	0/18
GFSLNEYGIS	VIYADGIRQHYSDKVK	GVVFGNVLF	nd nd nd nd nd nd	0/18
GFGLDEYGIS	VIYADGMRSNYATSVK	GYQAGVISV	nd nd nd nd nd nd	0/18
GFNIDEYGIS	VIYADGSRAVYTESVK	GHNGNRLVE	nd 2.59 nd nd 3.12 nd	0/18

The first 5 entries again:

CDR-H1	CDR-H2	CDR-H3	replicates, log10 nM	signal with controls
GFDLNEQGIS	VIYADGRRAATINQVK	GSNSFTFDL	nd nd nd nd nd nd	0/18
GKSLEEYGIS	VIYADGQRSAYAETVK	GNNGGVFIY	nd nd nd nd nd nd	0/18
GFQLDEYGIS	VIYADGERTMYSNRVK	GTEGGTFDM	0.87 0.67 -0.29 1.17 -0.19 0.31	0/18
EFDLNEYGVS	VIYADGHRTFYADHVK	GTEAGVFTI	nd 1.40 nd nd nd nd	0/18
GFDVNEYGIS	VIYADGRRTQYTDAVK	GKNNMVLFV	nd nd nd nd nd nd	0/18

In the paper, a design with two or fewer of six values counts as a poor binder. Values of this round are not directly comparable with the first-round values of the same sequences.

From the AlphaSeq antibody data of Li et al. 2023 (doi:10.1038/s41467-023-39022-2), copy in the FLAb collection.